# Literature values as cited in patent US20090181062A1, “DISPENSING A BIRD REPELLANT” (priority 2005, published 2009).
# Tested on: leaves of treated plants
# Conditions: sprayed on fruits and berries, large amounts of large size droplets
smiles,measurement,value
"COC(=O)c1ccccc1N [MA, Methyl Anthranilate]",phytotoxicity on leaves,severe phytotoxicity
